Source: patent publication EP4834897A1, “COMPOUNDS WITH TWO AZAHETEROCYCLES SUBSTITUTED ISOINDOLINONE SKELETON AND USES THEREOF” (dated 2026)

Amino acid sequences for entries named in this document (tags omitted).
UniProt Q96SW2, whole entry: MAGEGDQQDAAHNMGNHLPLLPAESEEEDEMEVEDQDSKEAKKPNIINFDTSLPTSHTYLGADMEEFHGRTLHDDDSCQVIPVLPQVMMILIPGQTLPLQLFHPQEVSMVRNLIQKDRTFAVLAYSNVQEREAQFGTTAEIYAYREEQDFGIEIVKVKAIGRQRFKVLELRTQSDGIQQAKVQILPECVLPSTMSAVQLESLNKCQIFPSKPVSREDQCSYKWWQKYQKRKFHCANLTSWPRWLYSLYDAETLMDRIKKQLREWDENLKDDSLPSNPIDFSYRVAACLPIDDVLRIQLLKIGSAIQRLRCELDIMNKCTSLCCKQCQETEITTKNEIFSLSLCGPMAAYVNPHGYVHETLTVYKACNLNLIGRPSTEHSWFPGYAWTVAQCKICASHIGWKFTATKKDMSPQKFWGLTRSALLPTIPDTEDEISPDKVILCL
UniProt P48729, whole entry: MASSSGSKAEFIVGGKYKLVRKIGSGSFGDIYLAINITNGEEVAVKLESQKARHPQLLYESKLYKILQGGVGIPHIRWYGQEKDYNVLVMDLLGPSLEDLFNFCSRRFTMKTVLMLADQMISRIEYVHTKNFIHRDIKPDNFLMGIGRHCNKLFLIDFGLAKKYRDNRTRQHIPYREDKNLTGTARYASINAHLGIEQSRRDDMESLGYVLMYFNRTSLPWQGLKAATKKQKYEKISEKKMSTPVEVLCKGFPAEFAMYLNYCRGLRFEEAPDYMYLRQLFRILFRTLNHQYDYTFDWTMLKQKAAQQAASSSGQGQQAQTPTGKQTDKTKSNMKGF
UniProt P15170, whole entry: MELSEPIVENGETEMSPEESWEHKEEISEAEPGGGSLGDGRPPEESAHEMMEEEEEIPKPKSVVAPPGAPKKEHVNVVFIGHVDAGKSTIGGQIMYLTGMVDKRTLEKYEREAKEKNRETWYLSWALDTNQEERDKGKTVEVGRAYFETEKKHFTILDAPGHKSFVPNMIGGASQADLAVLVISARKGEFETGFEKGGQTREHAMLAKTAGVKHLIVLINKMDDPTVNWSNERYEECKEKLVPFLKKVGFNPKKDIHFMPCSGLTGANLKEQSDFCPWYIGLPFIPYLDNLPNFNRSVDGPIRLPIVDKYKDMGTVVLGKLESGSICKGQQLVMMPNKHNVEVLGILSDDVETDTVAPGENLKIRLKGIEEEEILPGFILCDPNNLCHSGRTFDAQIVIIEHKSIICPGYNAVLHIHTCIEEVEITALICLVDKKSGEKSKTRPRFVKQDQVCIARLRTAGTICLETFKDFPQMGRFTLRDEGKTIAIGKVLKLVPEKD
UniProt Q13422, whole entry: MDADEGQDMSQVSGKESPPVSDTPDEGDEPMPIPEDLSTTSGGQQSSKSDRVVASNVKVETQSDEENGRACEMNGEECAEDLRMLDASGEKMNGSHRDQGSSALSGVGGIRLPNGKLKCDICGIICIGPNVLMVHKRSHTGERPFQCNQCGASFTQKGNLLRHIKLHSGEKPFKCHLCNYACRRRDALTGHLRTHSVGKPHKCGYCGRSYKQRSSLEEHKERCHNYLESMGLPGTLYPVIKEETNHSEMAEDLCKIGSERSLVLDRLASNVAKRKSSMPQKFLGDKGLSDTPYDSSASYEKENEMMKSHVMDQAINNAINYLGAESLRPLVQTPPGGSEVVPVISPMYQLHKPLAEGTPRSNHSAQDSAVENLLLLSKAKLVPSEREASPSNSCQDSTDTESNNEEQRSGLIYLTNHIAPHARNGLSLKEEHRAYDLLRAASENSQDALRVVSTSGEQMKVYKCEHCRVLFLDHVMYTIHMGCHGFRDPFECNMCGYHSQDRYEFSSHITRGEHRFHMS
UniProt Q9UKS7, whole entry: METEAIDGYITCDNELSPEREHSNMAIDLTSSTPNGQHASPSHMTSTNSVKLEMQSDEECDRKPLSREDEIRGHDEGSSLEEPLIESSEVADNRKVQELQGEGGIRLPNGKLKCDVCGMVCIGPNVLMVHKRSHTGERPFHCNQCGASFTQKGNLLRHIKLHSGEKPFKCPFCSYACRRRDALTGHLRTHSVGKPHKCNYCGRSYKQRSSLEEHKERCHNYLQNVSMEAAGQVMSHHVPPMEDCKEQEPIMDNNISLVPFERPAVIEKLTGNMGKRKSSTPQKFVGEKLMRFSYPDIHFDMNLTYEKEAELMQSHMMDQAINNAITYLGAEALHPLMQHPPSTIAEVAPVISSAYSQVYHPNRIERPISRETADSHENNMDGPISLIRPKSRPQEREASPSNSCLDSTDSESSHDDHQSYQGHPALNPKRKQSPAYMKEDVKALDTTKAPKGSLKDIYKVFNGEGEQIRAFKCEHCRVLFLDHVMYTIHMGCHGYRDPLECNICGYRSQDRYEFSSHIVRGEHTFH
UniProt Q9UKT9, whole entry: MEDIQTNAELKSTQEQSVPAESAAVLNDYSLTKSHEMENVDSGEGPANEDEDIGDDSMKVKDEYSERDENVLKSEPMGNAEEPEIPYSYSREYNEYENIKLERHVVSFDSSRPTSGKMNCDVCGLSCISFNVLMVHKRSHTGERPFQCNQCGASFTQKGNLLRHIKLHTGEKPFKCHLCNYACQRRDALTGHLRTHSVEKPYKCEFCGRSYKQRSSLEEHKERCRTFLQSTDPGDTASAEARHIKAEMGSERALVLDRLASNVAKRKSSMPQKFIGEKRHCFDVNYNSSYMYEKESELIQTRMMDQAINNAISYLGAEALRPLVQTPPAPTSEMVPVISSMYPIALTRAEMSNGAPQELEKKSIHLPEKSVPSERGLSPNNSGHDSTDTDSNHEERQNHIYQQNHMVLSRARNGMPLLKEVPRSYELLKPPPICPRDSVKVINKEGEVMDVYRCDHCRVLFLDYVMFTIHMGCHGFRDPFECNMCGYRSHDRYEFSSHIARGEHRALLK
UniProt P30291, whole entry: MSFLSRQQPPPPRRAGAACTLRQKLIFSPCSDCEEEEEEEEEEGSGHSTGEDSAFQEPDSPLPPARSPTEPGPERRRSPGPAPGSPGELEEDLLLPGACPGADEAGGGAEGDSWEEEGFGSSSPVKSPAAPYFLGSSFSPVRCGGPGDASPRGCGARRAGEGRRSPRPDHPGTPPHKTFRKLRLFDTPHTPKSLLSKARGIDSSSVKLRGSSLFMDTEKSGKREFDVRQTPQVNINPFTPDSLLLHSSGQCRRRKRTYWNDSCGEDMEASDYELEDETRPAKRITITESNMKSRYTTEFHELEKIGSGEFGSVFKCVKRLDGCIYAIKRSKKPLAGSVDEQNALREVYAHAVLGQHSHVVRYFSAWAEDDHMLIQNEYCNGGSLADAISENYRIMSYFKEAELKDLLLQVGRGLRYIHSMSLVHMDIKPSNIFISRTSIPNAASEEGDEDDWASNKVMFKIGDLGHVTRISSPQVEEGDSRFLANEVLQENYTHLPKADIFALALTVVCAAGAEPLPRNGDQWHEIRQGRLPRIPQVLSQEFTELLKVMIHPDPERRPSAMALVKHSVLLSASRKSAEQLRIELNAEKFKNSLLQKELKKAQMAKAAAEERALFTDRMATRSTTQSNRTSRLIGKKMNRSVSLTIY
UniProt Q16531, whole entry partner: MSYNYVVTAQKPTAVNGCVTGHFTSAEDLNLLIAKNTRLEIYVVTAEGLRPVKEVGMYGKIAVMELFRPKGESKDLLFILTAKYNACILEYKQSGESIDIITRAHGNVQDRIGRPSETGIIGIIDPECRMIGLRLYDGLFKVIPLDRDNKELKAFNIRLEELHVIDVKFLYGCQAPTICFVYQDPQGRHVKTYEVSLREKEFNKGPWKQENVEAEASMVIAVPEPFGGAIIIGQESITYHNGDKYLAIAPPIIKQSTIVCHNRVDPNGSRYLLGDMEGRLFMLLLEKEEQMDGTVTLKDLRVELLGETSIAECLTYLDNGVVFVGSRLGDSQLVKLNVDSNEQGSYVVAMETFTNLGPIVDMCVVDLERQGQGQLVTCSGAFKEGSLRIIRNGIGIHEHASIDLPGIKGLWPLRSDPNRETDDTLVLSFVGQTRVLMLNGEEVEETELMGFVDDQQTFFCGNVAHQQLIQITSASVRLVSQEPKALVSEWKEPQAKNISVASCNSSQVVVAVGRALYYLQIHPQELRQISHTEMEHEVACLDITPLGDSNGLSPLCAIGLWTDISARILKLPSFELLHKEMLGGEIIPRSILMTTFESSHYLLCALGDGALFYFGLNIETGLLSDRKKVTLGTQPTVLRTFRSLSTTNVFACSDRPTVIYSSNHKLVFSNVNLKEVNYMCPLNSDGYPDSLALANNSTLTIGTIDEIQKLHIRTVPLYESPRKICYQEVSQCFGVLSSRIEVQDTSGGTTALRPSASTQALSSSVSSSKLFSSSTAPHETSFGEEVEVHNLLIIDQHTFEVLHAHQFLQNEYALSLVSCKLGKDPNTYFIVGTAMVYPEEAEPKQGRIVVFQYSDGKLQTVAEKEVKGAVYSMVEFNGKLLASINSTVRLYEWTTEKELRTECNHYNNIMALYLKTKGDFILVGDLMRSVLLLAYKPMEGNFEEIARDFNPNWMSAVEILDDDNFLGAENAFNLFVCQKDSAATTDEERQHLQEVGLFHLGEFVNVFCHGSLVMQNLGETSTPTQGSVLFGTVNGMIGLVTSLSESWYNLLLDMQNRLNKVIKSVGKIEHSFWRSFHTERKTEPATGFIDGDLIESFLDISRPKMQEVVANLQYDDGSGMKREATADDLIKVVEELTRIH

Experiments:
CRBN = CRBN (Homo sapiens, UniProt Q96SW2); assay: CRBN binding affinity by HTRF (CEREBLON BINDING kit); settings: for Inhibition Rate at 0.5 µM (%) / Inhibition Rate at 2 µM (%): CRBN binding, HTRF; for Inhibition Rate at 0.5 µM (%): compound at 0.5 µM; for Inhibition Rate at 2 µM (%): compound at 2 µM
CK1α = CK1α (Homo sapiens, UniProt P48729+Q96SW2); assay: Western blot assay of substrate protein degradation in hPBMCs; settings: 24 hours treatment, compounds at 50 nM and 500 nM (concentration behind the class not stated)
GSPT1 = GSPT1 (Homo sapiens, UniProt P15170+Q96SW2); assay: as above; settings: 24 hours treatment, compounds at 50 nM and 500 nM (concentration behind the class not stated)
IKZF1 = IKZF1 (Homo sapiens, UniProt Q13422+Q96SW2); assay: as above; settings: 24 hours treatment, compounds at 50 nM and 500 nM (concentration behind the class not stated)
IKZF2 = IKZF2 (Homo sapiens, UniProt Q96SW2+Q9UKS7); assay: as above; settings: 24 hours treatment, compounds at 50 nM and 500 nM (concentration behind the class not stated)
IKZF3 = IKZF3 (Homo sapiens, UniProt Q96SW2+Q9UKT9); assay: as above; settings: 24 hours treatment, compounds at 50 nM and 500 nM (concentration behind the class not stated)
WEE1 = WEE1 (Homo sapiens, UniProt P30291+Q96SW2); assay: as above; settings: 24 hours treatment, compounds at 50 nM and 500 nM (concentration behind the class not stated)

O=C1CCC(N2Cc3cc(CN4CCC(N5CCN(C(c6ccccc6)c6ccccc6)CC5)CC4)ccc3C2=O)C(=O)N1 (centres unmarked)
IC50 (CRBN; read-out: HTRF IC50, human Cereblon WT GST-tagged protein, 3 hours at room temperature): 500 to 1000 nM | substrate protein remaining % (CK1a) (CK1α): A (0% ≤ substrate protein remaining % ≤ 80%) | substrate protein remaining % (GSPT1) (GSPT1): A (0% ≤ substrate protein remaining % ≤ 80%) | substrate protein remaining % (IKZF 1) (IKZF1): B (80%< substrate protein remaining %≤ 100%) | substrate protein remaining % (IKZF2) (IKZF2): A (0% ≤ substrate protein remaining % ≤ 80%) | substrate protein remaining % (IKZF3) (IKZF3): A (0% ≤ substrate protein remaining % ≤ 80%) | substrate protein remaining % (WEE1) (WEE1): B (80%< substrate protein remaining %≤ 100%)

O=C1CCC(N2Cc3cc(CCN4CCC(N5CCN(C(c6ccccc6)c6ccccc6)CC5)C(F)(F)C4)ccc3C2=O)C(=O)N1 (centres unmarked)
Inhibition Rate at 0.5 µM (%) (CRBN): a7 (70% < a7 ≤80%) | Inhibition Rate at 2 µM (%) (CRBN): a8 (80% < a8 ≤100%) | substrate protein remaining % (CK1a) (CK1α): B (80%< substrate protein remaining %≤ 100%) | substrate protein remaining % (GSPT1) (GSPT1): A (0% ≤ substrate protein remaining % ≤ 80%) | substrate protein remaining % (IKZF 1) (IKZF1): B (80%< substrate protein remaining %≤ 100%) | substrate protein remaining % (IKZF2) (IKZF2): B (80%< substrate protein remaining %≤ 100%) | substrate protein remaining % (IKZF3) (IKZF3): B (80%< substrate protein remaining %≤ 100%) | substrate protein remaining % (WEE1) (WEE1): B (80%< substrate protein remaining %≤ 100%)

O=C1CCC(N2Cc3cc(C(=O)N4CCC(N5CCN(c6cccc(Cl)c6Cl)CC5)C(F)(F)C4)cc(F)c3C2=O)C(=O)N1 (centres unmarked)
Inhibition Rate at 0.5 µM (%) (CRBN): a4 (40% < a4 ≤ 53%) | Inhibition Rate at 2 µM (%) (CRBN): a7 (70% < a7 ≤80%) | substrate protein remaining % (CK1a) (CK1α): A (0% ≤ substrate protein remaining % ≤ 80%) | substrate protein remaining % (GSPT1) (GSPT1): A (0% ≤ substrate protein remaining % ≤ 80%) | substrate protein remaining % (IKZF 1) (IKZF1): B (80%< substrate protein remaining %≤ 100%) | substrate protein remaining % (IKZF2) (IKZF2): B (80%< substrate protein remaining %≤ 100%) | substrate protein remaining % (IKZF3) (IKZF3): B (80%< substrate protein remaining %≤ 100%) | substrate protein remaining % (WEE1) (WEE1): B (80%< substrate protein remaining %≤ 100%)

CC1(C)CCC(CN2CCN(C3CCN(Cc4ccc5c(c4)C(=S)N(C4CCC(=O)NC4=O)C5)CC3(F)F)CC2)=C(c2ccc(Cl)cc2)C1 (centres unmarked)
Inhibition Rate at 0.5 µM (%) (CRBN): a3 (30% < a3 ≤ 40%) | Inhibition Rate at 2 µM (%) (CRBN): a6 (60% < a6 ≤ 70%) | substrate protein remaining % (CK1a) (CK1α): B (80%< substrate protein remaining %≤ 100%) | substrate protein remaining % (GSPT1) (GSPT1): A (0% ≤ substrate protein remaining % ≤ 80%) | substrate protein remaining % (IKZF 1) (IKZF1): B (80%< substrate protein remaining %≤ 100%) | substrate protein remaining % (IKZF2) (IKZF2): B (80%< substrate protein remaining %≤ 100%) | substrate protein remaining % (IKZF3) (IKZF3): A (0% ≤ substrate protein remaining % ≤ 80%) | substrate protein remaining % (WEE1) (WEE1): B (80%< substrate protein remaining %≤ 100%)

CC1(C)CCC(C(=O)N2CCN(C3CCN(CCCc4ccc5c(c4)CN(C4CCC(=O)NC4=O)C5=O)CC3(F)F)CC2)=C(c2ccc(Cl)cc2)C1 (centres unmarked)
Inhibition Rate at 0.5 µM (%) (CRBN): a6 (60% < a6 ≤ 70%) | Inhibition Rate at 2 µM (%) (CRBN): a8 (80% < a8 ≤100%) | substrate protein remaining % (CK1a) (CK1α): A (0% ≤ substrate protein remaining % ≤ 80%) | substrate protein remaining % (GSPT1) (GSPT1): A (0% ≤ substrate protein remaining % ≤ 80%) | substrate protein remaining % (IKZF 1) (IKZF1): B (80%< substrate protein remaining %≤ 100%) | substrate protein remaining % (IKZF2) (IKZF2): A (0% ≤ substrate protein remaining % ≤ 80%) | substrate protein remaining % (IKZF3) (IKZF3): A (0% ≤ substrate protein remaining % ≤ 80%) | substrate protein remaining % (WEE1) (WEE1): B (80%< substrate protein remaining %≤ 100%)

O=C1CCC(N2Cc3cc(CCCN4CCC(N5CCN(C(c6ccccc6)c6ccccc6)CC5)CC4)ccc3C2=O)C(=O)N1 (centres unmarked)
Inhibition Rate at 0.5 µM (%) (CRBN): a5 (53% < a5 ≤ 60%) | Inhibition Rate at 2 µM (%) (CRBN): a8 (80% < a8 ≤100%) | substrate protein remaining % (CK1a) (CK1α): B (80%< substrate protein remaining %≤ 100%) | substrate protein remaining % (GSPT1) (GSPT1): B (80%< substrate protein remaining %≤ 100%) | substrate protein remaining % (IKZF 1) (IKZF1): B (80%< substrate protein remaining %≤ 100%) | substrate protein remaining % (IKZF2) (IKZF2): A (0% ≤ substrate protein remaining % ≤ 80%) | substrate protein remaining % (IKZF3) (IKZF3): B (80%< substrate protein remaining %≤ 100%) | substrate protein remaining % (WEE1) (WEE1): B (80%< substrate protein remaining %≤ 100%)

O=C1CCC(N2Cc3c(C(=O)N4CCC(N5CCN(C(c6ccccc6)c6ccccc6)CC5)C(F)(F)C4)cccc3C2=O)C(=O)N1 (centres unmarked)
Inhibition Rate at 0.5 µM (%) (CRBN): a2 (20% < a2 ≤ 30%) | Inhibition Rate at 2 µM (%) (CRBN): a6 (60% < a6 ≤ 70%) | substrate protein remaining % (CK1a) (CK1α): A (0% ≤ substrate protein remaining % ≤ 80%) | substrate protein remaining % (GSPT1) (GSPT1): A (0% ≤ substrate protein remaining % ≤ 80%) | substrate protein remaining % (IKZF 1) (IKZF1): A (0% ≤ substrate protein remaining % ≤ 80%) | substrate protein remaining % (IKZF2) (IKZF2): B (80%< substrate protein remaining %≤ 100%) | substrate protein remaining % (IKZF3) (IKZF3): A (0% ≤ substrate protein remaining % ≤ 80%) | substrate protein remaining % (WEE1) (WEE1): A (0% ≤ substrate protein remaining % ≤ 80%)

CC1(C)CCC(CN2CCN(C3CCN(Cc4cccc5c4CN(C4CCC(=O)NC4=O)C5=S)CC3(F)F)CC2)=C(c2ccc(Cl)cc2)C1 (centres unmarked)
Inhibition Rate at 0.5 µM (%) (CRBN): a3 (30% < a3 ≤ 40%) | Inhibition Rate at 2 µM (%) (CRBN): a6 (60% < a6 ≤ 70%) | substrate protein remaining % (CK1a) (CK1α): B (80%< substrate protein remaining %≤ 100%) | substrate protein remaining % (GSPT1) (GSPT1): A (0% ≤ substrate protein remaining % ≤ 80%) | substrate protein remaining % (IKZF 1) (IKZF1): B (80%< substrate protein remaining %≤ 100%) | substrate protein remaining % (IKZF2) (IKZF2): B (80%< substrate protein remaining %≤ 100%) | substrate protein remaining % (IKZF3) (IKZF3): B (80%< substrate protein remaining %≤ 100%) | substrate protein remaining % (WEE1) (WEE1): A (0% ≤ substrate protein remaining % ≤ 80%)

O=C1CCC(N2Cc3cc(C(=O)N4CCC(N5CCN(C(c6ccccc6)c6ccccn6)CC5)C(F)(F)C4)cc(F)c3C2=O)C(=O)N1 (centres unmarked)
Inhibition Rate at 0.5 µM (%) (CRBN): a3 (30% < a3 ≤ 40%) | Inhibition Rate at 2 µM (%) (CRBN): a6 (60% < a6 ≤ 70%) | substrate protein remaining % (CK1a) (CK1α): A (0% ≤ substrate protein remaining % ≤ 80%) | substrate protein remaining % (GSPT1) (GSPT1): A (0% ≤ substrate protein remaining % ≤ 80%) | substrate protein remaining % (IKZF 1) (IKZF1): B (80%< substrate protein remaining %≤ 100%) | substrate protein remaining % (IKZF2) (IKZF2): A (0% ≤ substrate protein remaining % ≤ 80%) | substrate protein remaining % (IKZF3) (IKZF3): A (0% ≤ substrate protein remaining % ≤ 80%) | substrate protein remaining % (WEE1) (WEE1): B (80%< substrate protein remaining %≤ 100%)
